From PMC2816653, “Pre-clinical evaluation of cyclin-dependent kinase 2 and 1 inhibition in anti-estrogen-sensitive and resistant breast cancer cells” (British Journal of Cancer, 2009)

Amino acid sequences for entries named in this document (tags omitted). A change or cut given only in a name is not applied to a line headed by its entry.
UniProt P50613: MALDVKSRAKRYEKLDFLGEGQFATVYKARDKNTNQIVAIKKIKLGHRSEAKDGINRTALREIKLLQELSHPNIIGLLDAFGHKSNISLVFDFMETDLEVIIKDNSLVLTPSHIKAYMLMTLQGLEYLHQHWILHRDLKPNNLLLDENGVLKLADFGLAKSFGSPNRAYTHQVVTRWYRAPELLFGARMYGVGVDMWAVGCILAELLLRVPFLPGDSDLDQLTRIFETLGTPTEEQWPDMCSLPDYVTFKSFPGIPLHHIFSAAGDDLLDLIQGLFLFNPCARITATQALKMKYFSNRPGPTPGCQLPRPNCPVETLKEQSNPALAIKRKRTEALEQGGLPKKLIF
UniProt P11802: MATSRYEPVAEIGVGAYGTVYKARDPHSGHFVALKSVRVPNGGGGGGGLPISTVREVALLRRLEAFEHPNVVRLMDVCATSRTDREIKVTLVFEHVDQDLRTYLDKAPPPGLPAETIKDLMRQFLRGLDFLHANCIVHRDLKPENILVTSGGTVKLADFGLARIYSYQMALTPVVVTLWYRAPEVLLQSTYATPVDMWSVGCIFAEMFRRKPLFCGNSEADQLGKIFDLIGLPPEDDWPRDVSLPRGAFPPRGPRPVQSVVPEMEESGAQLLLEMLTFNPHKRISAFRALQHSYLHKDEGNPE

Key:
CDK7/cyclin H = CDK7/cyclin H (Homo sapiens, UniProt P50613); test: biochemical; design: in vitro kinase inhibition assay; details: read-out: NU2058 % inhibition
CDK4/cyclin D1 = CDK4/cyclin D1 (Homo sapiens, UniProt P11802); test: biochemical; design: in vitro kinase inhibition assay; details: read-out: NU2058 % inhibition

inhibition at 100 µM (CDK7/cyclin H): 44%
inhibition at 100 µM (CDK4/cyclin D1): 33%
SMILES: Nc1nc(OCC2CCCCC2)c2nc[nH]c2n1 [NU2058]
